{"source": "patent US20070218475A1", "about": "“Efficient drug screening for protein targets” (priority 2005, published 2007)", "origin": "cited, not measured here", "system": "pancreatic tumor xenografts", "details": "nude mice; cited from earlier work"}
{"smiles": "CC1=C2C[C@H]3[C@@H](CC=C4C[C@@H](O)CC[C@@]43C)[C@@H]2CC[C@]12O[C@@H]1C[C@H](C)CN[C@H]1[C@H]2C", "note": "[cyclopamine]", "values": [{"measurement": "growth of pancreatic tumor xenografts", "result": "suppress growth"}]}
